From article PMC3412733, “Identification and recombinant expression of anandamide hydrolyzing enzyme from Dictyostelium discoideum” (BMC Microbiology, 2012) come the findings set out here.

The target in data set [1] is T1, HIS-FAAH (Dictyostelium FAAH) (Dictyostelium discoideum, UniProt Q8MMR8).
T1 construct: gene DDB_G0275967
T1 sequence (Q8MMR8 1-637): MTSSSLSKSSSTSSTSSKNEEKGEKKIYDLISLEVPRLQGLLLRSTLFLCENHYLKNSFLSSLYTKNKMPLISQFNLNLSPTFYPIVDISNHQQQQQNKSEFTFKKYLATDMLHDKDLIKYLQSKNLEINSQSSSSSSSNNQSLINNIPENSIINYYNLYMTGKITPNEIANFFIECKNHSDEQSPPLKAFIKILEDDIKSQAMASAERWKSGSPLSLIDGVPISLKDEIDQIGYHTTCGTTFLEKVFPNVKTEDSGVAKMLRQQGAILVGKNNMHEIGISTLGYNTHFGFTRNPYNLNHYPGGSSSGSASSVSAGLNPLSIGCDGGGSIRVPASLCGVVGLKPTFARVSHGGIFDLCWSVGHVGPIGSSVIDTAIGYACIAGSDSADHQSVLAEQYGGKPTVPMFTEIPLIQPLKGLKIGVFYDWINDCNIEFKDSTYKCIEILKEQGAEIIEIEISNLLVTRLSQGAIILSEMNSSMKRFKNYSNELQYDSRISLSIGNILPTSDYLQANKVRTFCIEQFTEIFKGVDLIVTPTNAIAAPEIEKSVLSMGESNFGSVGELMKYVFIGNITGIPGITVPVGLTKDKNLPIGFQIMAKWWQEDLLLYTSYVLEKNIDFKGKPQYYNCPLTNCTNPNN
The experiment in a line: biochemical. As to conditions: read-out: % inhibition at 2.5 mM.

Substrate in data set [2]: CCCCC/C=C\C/C=C\C/C=C\C/C=C\CCCC(=O)Nc1ccc([N+](=O)[O-])cc1
The experiment in a line: p-nitroaniline release, A380, Michaelis-Menten fit. It is filed as biochemical, Dictyostelium discoideum. Conditions: pH 9.0, 37°C, 0.5% Triton X-100, 10% DMSO.

Substrate in data set [3]: CCCCCCCCCC(=O)Nc1ccc([N+](=O)[O-])cc1
The experiment in a line: p-nitroaniline release, A380, Michaelis-Menten fit. It is filed as biochemical, Dictyostelium discoideum. As to conditions: pH 9.0, 37°C, 0.5% Triton X-100, 10% DMSO.

As to `CN(C)C(=O)n1nnnc1Cc1ccc(-c2ccccc2)cc1` [LY2183240], in data set [1], the inhibition at 2500 µM is approximately 62%.

B1: HIS-FAAH (Dictyostelium FAAH) (Dictyostelium discoideum) (protein)
chain: T1 sequence (Q8MMR8 1-637)
notes: full length (637 residues, 70 kDa), N-terminal 6xHis tag kept, expressed in Dictyostelium AX3 (pDEXRH), Ni-NTA purified with Triton X-100
For the molecule B1, the values for the Km in data set [2] and in data set [3] were 47 µM and 65 µM, respectively. The kcat is 0.045 s⁻¹ in data set [2] and 0.023 s⁻¹ in data set [3].

The inhibition is how much of the control response was suppressed. By Km is commonly meant the substrate concentration at which the rate is half of its maximum. Broadly, the kcat is the maximal rate divided by the concentration of active sites.
